Source: patent publication US11534443B2, “Quinazoline compounds, preparation method, use, and pharmaceutical composition thereof” (INSTITUTE OF MATERIA MEDICA, CHINESE ACADEMY OF MEDICAL …, priority 2016, dated 2022)

Test system: human lung cancer cell NCI-H460
Assay: Tumor cell viability by MTT assay
Assay type: cell-based
Details: NCI-H460, 96 h, read-out: H460 IC50
Method: After 24 hours, 100 μL of fresh medium containing different concentrations of test compounds and the corresponding solvent control was added into each well to a final concentration of DMSO less than 0.2%. Six to nine concentration groups were set for each test compound, and three parallel wells were set for each group. The plate was incubated at 5% CO2, 37° C. for 96 hours. 20 μL of freshly prepared PBS solution containing 5 mg/mL MTT was added to each well. The supernatant was discarded after incubation for another 4 hours. 150 μL DMSO was added to each well to dissolve the MTT formazan precipitate. After being mixed by a micro-oscillator, the optical density (OD) was measured at the wavelength of 570 nm, and the tumor cells treated with DMSO were used as a control group.

Compound `COc1ncc(-c2cc(OC3CCOCC3)c3nc(N)nc(C)c3c2)cc1NS(=O)(=O)c1ccc(F)cc1F` [Example 1, N-(5-(2-amino-4-methyl-8-((tetrahydro-2H-pyran-4-yl)oxy)quinazolin-6-yl)-2-methoxypyridin-3-yl)-2,4-difluorobenzenesulfonamide] has an IC50 of 29 nM.
